## Measured water solubility values of organic chemicals

Solubility in water is on a log10 molar scale (set defined at 25 °C).

{"smiles": "Cc1cc(N)nc(=O)[nH]1", "water solubility (log10 mol/L)": "-1.47"}
{"smiles": "CN(CCO)S(=O)(=O)C(F)(F)C(F)(F)C(F)(F)C(F)(F)C(F)(F)C(F)(F)C(F)(F)C(F)(F)F", "water solubility (log10 mol/L)": "-5.834"}
{"smiles": "CC12CCC(C(=O)N(O)C1=O)C2(C)C", "stereo": "configuration not stated", "water solubility (log10 mol/L)": "-0.278"}
{"smiles": "CCCc1nc(C)c2c(=O)nc(-c3cc(S(=O)(=O)O)ccc3OCC)[nH]n12", "water solubility (log10 mol/L)": "-2.293"}
{"smiles": "O=C(Nc1cc2c3cc(NC(=O)c4ccccc4)c4c(=O)c5ccccc5c(=O)c4c3[nH]c2c2c(=O)c3ccccc3c(=O)c12)c1ccccc1", "water solubility (log10 mol/L)": "-4.522"}
{"smiles": "Nc1c(S(=O)(=O)O)ccc2ccccc12", "water solubility (log10 mol/L)": "-2.16"}
{"smiles": "O=c1c(Br)cc(Br)cc(Br)c1O", "water solubility (log10 mol/L)": "-3.59"}
{"smiles": "Cc1cccc(C)c1OCC(=O)N[C@@H](Cc1ccccc1)[C@@H](O)C[C@H](Cc1ccccc1)NC(=O)[C@H](C(C)C)N1CCCNC1=O", "water solubility (log10 mol/L)": "-5.515"}
{"smiles": "O=C(CCCCCCCCCCC(=O)OCCOc1ccc(-c2nc(-c3ccccc3)nc(-c3ccccc3)n2)c(O)c1)OCCOc1ccc(-c2nc(-c3ccccc3)nc(-c3ccccc3)n2)c(O)c1", "water solubility (log10 mol/L)": "-8.383"}
{"smiles": "CCN(CC)C(=O)Cn1cnc2c1c(=O)n(C)c(=O)n2C", "water solubility (log10 mol/L)": "-0.923"}
{"smiles": "CC(SC(C)C(N)=O)C(N)=O", "stereo": "configuration not stated", "water solubility (log10 mol/L)": "-0.924"}
{"smiles": "COc1c(O)cc(Cl)c(Cl)c1Cl", "water solubility (log10 mol/L)": "-2.87"}
{"smiles": "NS(=O)(=O)c1cc2c(s1)[S+]([O-])CCC2O", "stereo": "configuration not stated", "water solubility (log10 mol/L)": "-1.348"}
{"smiles": "CC(COC=O)OC=O", "stereo": "configuration not stated", "water solubility (log10 mol/L)": "-3.19"}
{"smiles": "COc1cc(OC)n2nc(NS(=O)(=O)c3c(C(F)(F)F)ccnc3OC)nc2n1", "water solubility (log10 mol/L)": "-2.13"}
{"smiles": "Cn1c(=O)cc2c3c(c(Br)ccc31)C(=O)c1ccccc1-2", "water solubility (log10 mol/L)": "-6.68"}
{"smiles": "Cc1ccc2cccc(O)c2n1", "water solubility (log10 mol/L)": "-1.731"}
{"smiles": "N#CCC(=O)NCc1ccccc1", "water solubility (log10 mol/L)": "-2.065"}
{"smiles": "CCC(=O)NC(C)=O", "water solubility (log10 mol/L)": "-0.806"}
{"smiles": "Nc1ccc(C(=O)NCC(=O)O)cc1", "water solubility (log10 mol/L)": "-1.174"}
{"smiles": "CC(=O)C(N=Nc1cccc(OCCOc2ccccc2N=NC(C(C)=O)C(=O)Nc2ccc3[nH]c(=O)[nH]c3c2)c1)C(=O)Nc1ccc2[nH]c(=O)[nH]c2c1", "stereo": "configuration not stated", "water solubility (log10 mol/L)": "-7.634"}
{"smiles": "Nc1ncnc2c1[n+]([O-])cn2[C@@H]1O[C@H](CO)[C@@H](O)[C@H]1O", "water solubility (log10 mol/L)": "-4.611"}
{"smiles": "ClC(Cl)=C=C(Cl)C(Cl)Cl", "water solubility (log10 mol/L)": "-4.23"}
{"smiles": "CCOC(=O)/C(=C\\c1cccc([N+](=O)[O-])c1)N=CO", "water solubility (log10 mol/L)": "-2.47"}
{"smiles": "Cn1c(=O)[nH]c(=O)c2[nH]c(=O)[nH]c21", "water solubility (log10 mol/L)": "-3.53"}
{"smiles": "Cn1c(=O)[nH]c2c(=O)n(C)c(=O)n(C)c2c1=O", "water solubility (log10 mol/L)": "-3.764"}
{"smiles": "O=C1c2ccc(O)c(O)c2C(=O)c2c(O)ccc(O)c21", "water solubility (log10 mol/L)": "-5.02"}
{"smiles": "CC(=O)OCCCc1ccc(S(N)(=O)=O)cc1", "water solubility (log10 mol/L)": "-2.206"}
{"smiles": "CCOC(=O)CC(=O)OCC", "water solubility (log10 mol/L)": "-0.82"}
{"smiles": "Clc1ccc(Oc2cccc(Cl)c2Cl)cc1Cl", "water solubility (log10 mol/L)": "-6.9"}
{"smiles": "CN(C)C(=O)c1ccccc1", "water solubility (log10 mol/L)": "-0.824"}
{"smiles": "CCCCCCCCCCCCCCCCCCNC(=O)Nc1ccc(Cc2ccc(NC(=O)NCCCCCCCCCCCCCCCCCC)cc2)cc1", "water solubility (log10 mol/L)": "-5.943"}
{"smiles": "Clc1ccc(-c2ccc(-c3c(Cl)cc(Cl)cc3Cl)cc2)cc1", "water solubility (log10 mol/L)": "-9.32"}
{"smiles": "COCOC", "water solubility (log10 mol/L)": "0.48"}
{"smiles": "CCCCCCCCCCOc1ccc(C(c2ccccc2)(c2ccccc2)c2ccccc2)cc1C(C)CC", "stereo": "configuration not stated", "water solubility (log10 mol/L)": "-7.787"}
{"smiles": "CCCCC(CC)CN1C(=O)C2C3C=CC(C3)C2C1=O", "stereo": "configuration not stated", "water solubility (log10 mol/L)": "-4.264"}
{"smiles": "Clc1ccc(Cl)c(Oc2ccc(Cl)c(Cl)c2)c1", "water solubility (log10 mol/L)": "-7.07"}
{"smiles": "CCCCCCCCCCCC[N+](C)(C)[O-]", "water solubility (log10 mol/L)": "-0.082"}

3 of these entries, quoted again:

{"smiles": "CC12CCC(C(=O)N(O)C1=O)C2(C)C", "stereo": "configuration not stated", "water solubility (log10 mol/L)": "-0.278"}
{"smiles": "NS(=O)(=O)c1cc2c(s1)[S+]([O-])CCC2O", "stereo": "configuration not stated", "water solubility (log10 mol/L)": "-1.348"}
{"smiles": "CC(=O)C(N=Nc1cccc(OCCOc2ccccc2N=NC(C(C)=O)C(=O)Nc2ccc3[nH]c(=O)[nH]c3c2)c1)C(=O)Nc1ccc2[nH]c(=O)[nH]c2c1", "stereo": "configuration not stated", "water solubility (log10 mol/L)": "-7.634"}

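The OPERA project collected these measurements from public sources as training and test data for property models. The files give a single number for a compound and property, which may rest on several reports. Conditions of the individual experiments are not part of the data. Where a salt, mixture or single isomer is drawn, the source does not say that exactly this form was tested. Unmarked limits or estimates from the upstream databases cannot be ruled out.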

Values as listed in the OPERA 2.9 repository of K. Mansouri.